## Apparent affinities of Ab-14 variants for a coronavirus HR2 peptide

The target is the same throughout: PDVDLGDISGINAS, from the HR2 region of SARS-CoV-2 spike.

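Phage display of a naive human antibody library on the peptide gave the parent. Designed CDR sequences, proposed from the first random library and measured here. Their group label is 14H_GP_Gibbs (GP: Gaussian process model; Gibbs: Gibbs sampling; a sequence that several methods proposed may carry one label only). The scFvs were displayed on barcoded MATa yeast, the peptide on MATalpha yeast. Mating (16 h, 30 °C) was followed by selection of diploids and sequencing of their barcodes. A regression on co-assayed BCL2-family reference pairs converts the normalised counts of each replicate to an apparent Kd. There are six technical replicates.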

Parent scFv Ab-14: VH joined to VL by a 15-residue (Gly4Ser)3 linker. Changes lie in the heavy chain CDRs alone.
VH: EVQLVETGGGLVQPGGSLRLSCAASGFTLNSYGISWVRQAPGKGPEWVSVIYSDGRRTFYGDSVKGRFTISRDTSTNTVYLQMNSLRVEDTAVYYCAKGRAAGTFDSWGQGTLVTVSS
VL: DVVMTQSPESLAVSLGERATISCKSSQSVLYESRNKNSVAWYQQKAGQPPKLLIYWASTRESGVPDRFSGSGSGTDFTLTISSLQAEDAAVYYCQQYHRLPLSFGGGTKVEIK

The whole VH of each variant is written out. Numbers give log10(Kd / nM), so 0 is 1 nM and 3 is 1 µM. Smaller is tighter. Replicates are averaged; those with no signal do not enter the mean. "n.d." marks a missing value. The strain was present, yet no cells mated with the target were sequenced in that replicate, which points to weak or no binding. Three control strains display no target. For all heavy chain designs, 1% of the pairings with them gave a signal, with a median of 2.08 and one signal in twenty below 0.84, so weak values seen in few replicates may be background. For each scFv, signals with the empty controls are counted beside the result, with their mean in brackets. The authors' rule: three or more of the six replicates give a measured affinity, fewer mean a poor binder. The range of this assay differs from that of the first round, and the authors advise against merging the two.

VH	log10 Kd, replicates	mean, log10 nM	empty controls
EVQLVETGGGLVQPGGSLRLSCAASGFTLESYGISWVRQAPGKGPEWVSVIYSDGRRTFYADRVKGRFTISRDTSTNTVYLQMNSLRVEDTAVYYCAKGWTAGTFDSWGQGTLVTVSS	1.64 1.06 1.29 1.74 1.00 2.15	1.48	0 of 18
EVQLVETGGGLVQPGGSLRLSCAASGFTLNSYGISWVRQAPGKGPEWVSVIYSDGRRTFYGDNVKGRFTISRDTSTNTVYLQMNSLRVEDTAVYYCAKGQTAGTFDKWGQGTLVTVSS	n.d. n.d. n.d. n.d. n.d. -0.03	-0.03	0 of 18
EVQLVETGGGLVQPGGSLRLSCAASGFNLNSYGISWVRQAPGKGPEWVSVIYSDGRRTFYADAVKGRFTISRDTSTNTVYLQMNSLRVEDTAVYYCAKGQEAGTFDSWGQGTLVTVSS	n.d. n.d. n.d. n.d. n.d. n.d.	n.d.	0 of 18
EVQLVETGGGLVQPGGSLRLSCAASSFNLNSYGISWVRQAPGKGPEWVSVIYSDGRRTFYADSVKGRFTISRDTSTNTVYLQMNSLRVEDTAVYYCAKGKTAGTFDSWGQGTLVTVSS	1.11 1.09 1.61 0.85 0.71 0.92	1.05	0 of 18
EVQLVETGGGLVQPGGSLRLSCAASWFNLNSYGISWVRQAPGKGPEWVSVIYSDGRRTFYADSVKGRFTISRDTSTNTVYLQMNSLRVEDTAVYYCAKGNAAGTFDSWGQGTLVTVSS	n.d. 1.34 n.d. 1.66 n.d. n.d.	1.50	0 of 18
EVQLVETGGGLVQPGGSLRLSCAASGFWLNEYGISWVRQAPGKGPEWVSVIYSDGRRTFYGDNVKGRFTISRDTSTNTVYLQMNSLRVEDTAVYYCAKGRTAGTFDSWGQGTLVTVSS	n.d. n.d. n.d. n.d. n.d. n.d.	n.d.	0 of 18
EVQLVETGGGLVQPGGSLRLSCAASGFSLNSYGISWVRQAPGKGPEWVSVIYSDGRRTFYGDTVKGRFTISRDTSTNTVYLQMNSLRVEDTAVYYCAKGRQAGTFDSWGQGTLVTVSS	0.84 1.45 0.94 1.12 1.48 1.57	1.23	0 of 18
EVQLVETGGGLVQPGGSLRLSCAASGFTLNSYGISWVRQAPGKGPEWVSVIYADGRRTFYGDSVKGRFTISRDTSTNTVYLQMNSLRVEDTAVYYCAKGRTAGTFDAWGQGTLVTVSS	0.56 0.28 0.58 0.37 0.45 0.33	0.43	0 of 18
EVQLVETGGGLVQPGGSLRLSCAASGFELNSYGISWVRQAPGKGPEWVSVIYSDGRRTFYVDSVKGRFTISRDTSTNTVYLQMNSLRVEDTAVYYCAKGSTAGTFDAWGQGTLVTVSS	0.56 0.37 0.15 0.03 -0.01 0.33	0.24	1 of 18 (1.89)
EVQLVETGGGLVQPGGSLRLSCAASGFSLNSYGISWVRQAPGKGPEWVSVIYSDGRRTFYGDSVKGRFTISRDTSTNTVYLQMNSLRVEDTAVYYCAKGQVAGTFDIWGQGTLVTVSS	0.23 1.05 1.07 0.99 1.16 0.61	0.85	0 of 18
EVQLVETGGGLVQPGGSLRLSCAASGFSLNSYGISWVRQAPGKGPEWVSVIYSDGRRTFYQDDVKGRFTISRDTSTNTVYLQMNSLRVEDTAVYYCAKGEAAGTFDSWGQGTLVTVSS	-0.01 1.05 1.87 0.36 -0.14 -0.16	0.49	0 of 18
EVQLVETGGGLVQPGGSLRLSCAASGFELNSYGISWVRQAPGKGPEWVSVIYSDGRRTFYTDDVKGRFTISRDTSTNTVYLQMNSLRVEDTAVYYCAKGRTAGTFDSWGQGTLVTVSS	0.08 -0.66 0.37 -0.35 -0.78 -0.18	-0.25	1 of 18 (1.08)
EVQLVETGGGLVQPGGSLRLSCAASGFTLDSYGISWVRQAPGKGPEWVSVIYSDGRRTFYADSVKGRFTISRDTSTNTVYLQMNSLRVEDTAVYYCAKGREAGTFDTWGQGTLVTVSS	0.12 -0.05 0.11 -0.08 0.07 -0.20	0.00	0 of 18
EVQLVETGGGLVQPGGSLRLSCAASGFDLNSYGISWVRQAPGKGPEWVSVIYSDGRRTFYQDSVKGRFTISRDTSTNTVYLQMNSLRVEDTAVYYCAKGEAAGTFDTWGQGTLVTVSS	0.31 0.41 -0.36 -0.05 -0.15 -0.08	0.01	0 of 18
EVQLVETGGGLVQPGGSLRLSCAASGFSLNSYGISWVRQAPGKGPEWVSVIYSDGRRTFYADDVKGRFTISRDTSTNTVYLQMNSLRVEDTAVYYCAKGRTAGTFDKWGQGTLVTVSS	0.69 0.48 0.24 0.60 0.41 0.20	0.44	0 of 18
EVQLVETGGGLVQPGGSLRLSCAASGKSLNSYGISWVRQAPGKGPEWVSVIYSDGRRTFYTDSVKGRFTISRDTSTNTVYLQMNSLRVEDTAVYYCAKGRTAGTFDSWGQGTLVTVSS	0.85 1.01 1.43 1.49 1.64 1.71	1.35	0 of 18
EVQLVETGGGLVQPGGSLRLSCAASGFELNSYGISWVRQAPGKGPEWVSVIYSDGRRTFYGDHVKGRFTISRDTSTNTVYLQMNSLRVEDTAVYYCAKGRTAGTFDTWGQGTLVTVSS	1.06 1.34 1.70 1.76 1.60 1.05	1.42	0 of 18
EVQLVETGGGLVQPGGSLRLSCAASGFQLNSYGISWVRQAPGKGPEWVSVIYSDGRRTFYVDSVKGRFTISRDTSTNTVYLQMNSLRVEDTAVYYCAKGEAAGTFDSWGQGTLVTVSS	1.59 n.d. 3.57 1.88 3.99 1.57	2.52	0 of 18
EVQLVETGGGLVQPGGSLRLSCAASGFTLNSYGISWVRQAPGKGPEWVSVIYADGRRTFYGDRVKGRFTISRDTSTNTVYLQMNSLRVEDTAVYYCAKGRAAGTFDVWGQGTLVTVSS	0.76 0.48 1.15 0.61 0.03 1.84	0.81	1 of 18 (1.19)
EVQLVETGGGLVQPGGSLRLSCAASGFNLNSYGISWVRQAPGKGPEWVSVIYSDGRRTFYVDDVKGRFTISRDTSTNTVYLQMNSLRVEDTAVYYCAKGSAAGTFDSWGQGTLVTVSS	0.67 0.42 0.48 0.45 0.61 0.40	0.51	0 of 18
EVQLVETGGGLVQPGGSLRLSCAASKFDLNSYGISWVRQAPGKGPEWVSVIYSDGRRTFYGDSVKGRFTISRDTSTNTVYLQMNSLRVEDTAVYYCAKGREAGTFDKWGQGTLVTVSS	n.d. n.d. n.d. n.d. n.d. n.d.	n.d.	0 of 18

The first 3 variants above that were never detected:

| VH | log10 Kd, replicates | mean, log10 nM | empty controls |
|---|---|---|---|
| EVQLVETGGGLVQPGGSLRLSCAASGFNLNSYGISWVRQAPGKGPEWVSVIYSDGRRTFYADAVKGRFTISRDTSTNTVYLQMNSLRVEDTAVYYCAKGQEAGTFDSWGQGTLVTVSS | n.d. n.d. n.d. n.d. n.d. n.d. | n.d. | 0 of 18 |
| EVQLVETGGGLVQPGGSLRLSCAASGFWLNEYGISWVRQAPGKGPEWVSVIYSDGRRTFYGDNVKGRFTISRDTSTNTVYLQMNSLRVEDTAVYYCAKGRTAGTFDSWGQGTLVTVSS | n.d. n.d. n.d. n.d. n.d. n.d. | n.d. | 0 of 18 |
| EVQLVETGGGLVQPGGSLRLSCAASKFDLNSYGISWVRQAPGKGPEWVSVIYSDGRRTFYGDSVKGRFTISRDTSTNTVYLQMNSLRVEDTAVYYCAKGREAGTFDKWGQGTLVTVSS | n.d. n.d. n.d. n.d. n.d. n.d. | n.d. | 0 of 18 |

Data: MIT Lincoln Laboratory AlphaSeq set, Li et al. 2023, doi:10.1038/s41467-023-39022-2, as distributed in FLAb.